# Compound activity: PubChem, Broad Institute
# esBAF inh: SWI/SNF esBAF complex inhibition. 350,000 tested, 2% active. reporter increase, % at 12.5 µM. mouse ES cells, Bmi1-luciferase knock-in reporter, 24 h; 100% = twice the neutral-well signal; in the data active = activation above about 40%;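 note: 0% = median of the plate's neutral control wells and 100% = double that signal; a rise in the Bmi1 reporter signal indicates esBAF inhibition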
# E-sel inducer: induces E-selectin expression in human endothelial cells; activation, % at 7.58 µM; 260,000 tested, 0.37% active; P16581; HUVEC E-selectin immunofluorescence imaging; normalized: neutral wells 0, TNF-alpha wells 100;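 active = mean E-selectin-positive cell signal at least 10% of the positive control, reached in at least 60% of replicates, without over 20% cell loss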
#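 Test system: HUVEC; input: 3,000 HUVEC/well; measured by: immunofluorescence imaging; read-out: % PE-positive cells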
# PGC1a acetyl inh: modulators of PGC1a acetylation. inhibition, % at 15.6 µM. U2OS PGC1a acetylation, AlphaScreen anti-acetyl-lysine; with virally co-expressed GCN5 acetyltransferase. 350,000 tested, 0.17% active;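 active = every replicate shows inhibition of at least 40%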;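 note: 0% = neutral control wells and 100% = positive control wells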
# PglD DTNB: inhibitors of Campylobacter jejuni PglD acetyltransferase | AID 602405 | 360,000 tested, 0.098% active | inhibition, % at 12.5 µM | purified PglD enzyme, DTNB colorimetric CoA detection; in the data active = inhibition above about 16%, passing the limit was not always enough
# UUG fidelity: modulators of start codon recognition fidelity in yeast; S. cerevisiae UUG-firefly luciferase reporter, luminescence/redox ratio; activity score, % at 18.7 µM; hit rate 0.13% among 350,000; AID 602363;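 active = replicate mean at a twofold rise or more, about +100% in these data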;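 note: firefly luciferase made from a UUG start codon reports start codon fidelity; reporter light over untreated wells divided by growth signal over untreated wells; some hits fall short of that in this replicate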
# Statin myotox sup: suppressors of simvastatin-induced myotoxicity in C2C12 myotubes | 330,000 tested, 0.78% active | ATP luminescence, 48 h; scaled: DMSO 0, geranylgeraniol control 100 | rescue of ATP level, % at 7.49 µM;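 active = mean ATP rescue above about 67%, or every replicate alone reaching that limit, limit read from the data, passing the limit was not always enough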;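 note: myotubes were challenged with 10 µM simvastatin during compound exposure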
# Starred values were filed as active, the others as inactive; x = not tested or not shown. Most compounds without a hit are left out; they make up all but 2.8% or so of the library.
SMILES,esBAF inh,E-sel inducer,PGC1a acetyl inh,PglD DTNB,UUG fidelity,Statin myotox sup
C[C@@H]1CN([C@H](C)CO)C(=O)c2cc(NC(=O)Cn3cnnn3)ccc2O[C@H]1CN(C)S(=O)(=O)c1ccc(Cl)cc1,-5.0,0.3,-3.4,x,x,-5.8
C=CCOC(=O)c1ccc(-n2cncn2)nc1,-6.6,x,-3.7,-2.8,-21.8,133.8*
O=C(Oc1ccccc1Cl)c1ccc(-n2cncn2)nc1,-2.4,x,x,-10.4,-27.0,-11.3
Cc1ccc(S(=O)(=O)N[C@@H]2CC[C@@H](CCNC(=O)c3ccc4c(c3)OCO4)O[C@H]2CO)cc1,-4.8,-0.1,-6.3,2.8,8.7,-3.8
O=C(CSc1cn(CC(=O)N2CCOCC2)c2ccccc12)N1CCOCC1,2.7,x,7.0,6.1,3.3,-8.0
O=C(Cn1cc(SCc2cccc(Cl)c2)c2ccccc21)N1CCOCC1,62.4*,x,1.6,-1.9,-4.9,-13.4
Cc1cccc(CSc2cn(CC(=O)N3CCOCC3)c3ccccc23)c1,83.6*,x,-1.3,2.5,-7.3,-4.5
CCn1cnc2sc(-c3ccccc3)cc2c1=O,48.7*,x,5.0,x,x,-12.5
COc1cccc(-n2cnc3sc(-c4ccccc4)cc3c2=O)c1,47.1*,0.0,2.8,0.7,-18.6,-30.3
O=c1[nH]cnc2sc(-c3ccccc3)cc12,48.8*,x,13.8,-1.7,-23.5,26.3
O=c1[nH]c(-c2ccccc2)nc2sc(-c3ccccc3)cc12,x,0.1,x,x,x,x
O=c1c2cc(-c3ccccc3)sc2ncn1-n1cccc1,71.8*,x,-31.1,-2.8,-20.5,-35.2
C[C@H]1CN([C@@H](C)CO)C(=O)c2cc(C#CC3CC3)cnc2O[C@@H]1CN(C)Cc1cccc(C(=O)O)c1,-2.8,1.3,6.2,-1.3,17.9,3.3
Cc1noc(C)c1NC(=O)N(C)C[C@@H]1Oc2ccc(NC(=O)Nc3ccc(F)cc3)cc2CC(=O)N([C@@H](C)CO)C[C@@H]1C,0.6,0.0,4.3,-1.2,7.1,13.4
Cc1[nH]c(=O)c(C(=O)/C=C/c2ccccc2F)c2c1CCCC2,43.0*,x,40.7,4.2,-9.7,x

# The last 3 entries of the part above lead into the next.
SMILES,esBAF inh,E-sel inducer,PGC1a acetyl inh,PglD DTNB,UUG fidelity,Statin myotox sup
C[C@H]1CN([C@@H](C)CO)C(=O)c2cc(C#CC3CC3)cnc2O[C@@H]1CN(C)Cc1cccc(C(=O)O)c1,-2.8,1.3,6.2,-1.3,17.9,3.3
Cc1noc(C)c1NC(=O)N(C)C[C@@H]1Oc2ccc(NC(=O)Nc3ccc(F)cc3)cc2CC(=O)N([C@@H](C)CO)C[C@@H]1C,0.6,0.0,4.3,-1.2,7.1,13.4
Cc1[nH]c(=O)c(C(=O)/C=C/c2ccccc2F)c2c1CCCC2,43.0*,x,40.7,4.2,-9.7,x
Cc1cc(C)c(C(=O)/C=C/c2cccc3ccccc23)c(=O)[nH]1,x,1.7,x,x,x,x
C[C@@H]1CN([C@@H](C)CO)C(=O)Cc2cc(NS(=O)(=O)c3ccc(F)cc3)ccc2O[C@H]1CN(C)Cc1ccc(C(=O)O)cc1,x,0.1,-0.2,x,x,x
O=[N+]([O-])c1ncccc1OCc1ccc(Cl)c(Cl)c1,66.6*,-0.1,-4.1,0.0,-3.7,-74.1
C[C@@H]1CCCCO[C@@H](CN(C)Cc2ccc(C(F)(F)F)cc2)[C@H](C)CN([C@@H](C)CO)C(=O)c2cc(NC(=O)c3ccccc3)ccc2O1,5.1,-0.2,-35.7,-0.6,38.5,x
C=C(C)COc1ccc2oc(C)c(C(=O)OCCOC)c2c1,-6.9,x,8.0,-0.3,-2.6,105.9*
CN1C[C@@H]2[C@H](c3ccccc31)[C@@H](CO)N2C(=O)C1CCCCC1,2.9,6.3,-6.8,-0.2,-1.4,12.0
Cc1ccccc1-c1nc(Cc2ccccc2)no1,59.5*,x,-1.8,-0.5,-19.4,x
C[C@@H]1CN([C@@H](C)CO)C(=O)c2cc(NC(=O)CCCN(C)C)ccc2O[C@@H]1CN(C)Cc1ccc(Cl)c(Cl)c1,-0.4,-0.2,-12.2,1.6,-1.6,-6.6
O=C(Nc1cccnc1)c1ccccc1Oc1ccccc1,-3.0,x,5.0,2.3,-14.5,14.2
COc1cc2ccccc2cc1C(=O)Nc1cccnc1,47.6*,x,-8.3,4.2,-16.0,x
O=C(Nc1cccnc1)c1ccc(Oc2ccccc2)cc1,53.6*,x,-78.5,5.8,-25.8,-2.9
O=C(NCCN1C(=O)C2C3C=CC(C3)C2C1=O)Nc1ccc(Br)cc1 (stereo not drawn),62.5*,0.8,-6.5,-6.6,-4.9,-23.5
O=C(NCCN1C(=O)C2C3C=CC(C3)C2C1=O)Nc1cccnc1 (stereo not drawn),3.4,0.5,-3.6,2.8,0.3,-0.6
CCCCN1C(=O)/C(=C/C=C2\Oc3ccccc3N2CC)SC1=S,-4.4,x,-3.1,-3.8,-16.9,-18.3
CCCCN1C(=O)/C(=C/C=C2/CC(C)(C)CN2C)SC1=S,93.1*,x,x,x,x,-38.0

# Whole records, quoted from the list. Values in the order: esBAF inh, E-sel inducer, PGC1a acetyl inh, PglD DTNB, UUG fidelity, Statin myotox sup
# CCCCN1C(=O)/C(=C/C=C2\Oc3ccccc3N2CC)SC1=S across the screens: -4.4, x, -3.1, -3.8, -16.9, -18.3
# COc1cc2ccccc2cc1C(=O)Nc1cccnc1 across the screens: 47.6*, x, -8.3, 4.2, -16.0, x

# Remaining list, next part.
SMILES,esBAF inh,E-sel inducer,PGC1a acetyl inh,PglD DTNB,UUG fidelity,Statin myotox sup
CCOc1ccc(Nc2nc(NCc3ccco3)nc(N)c2[N+](=O)[O-])cc1,4.2,x,72.4*,x,x,28.2
Cc1ccc(CNc2nc(N)c([N+](=O)[O-])c(NCc3ccccc3)n2)cc1,x,0.1,x,1.2,-16.4,x
Cc1ccc(CNc2nc(N)c([N+](=O)[O-])c(Nc3ccc(F)cc3)n2)cc1,6.0,0.7,1.0,2.5,-12.0,122.8*
Nc1nc(NCc2ccco2)nc(Nc2ccc(F)cc2)c1[N+](=O)[O-],x,0.0,1.1,3.4,4.2,x
CCCNC(=O)N1C[C@H](C)[C@H](OC)CN(C)C(=O)c2ccc(NC(=O)C3CCC3)cc2OC[C@@H]1C,0.5,-0.1,3.2,3.7,x,-5.7
O=C(N/N=C/c1ccc[nH]1)c1cc2ccccc2cc1O,52.8*,0.0,x,-1.1,-21.3,-7.2
O=C(N/N=C/c1ccc[nH]1)c1sc2ccccc2c1Cl,55.3*,x,-0.6,0.9,-30.8,4.4
CCOc1ccc(OCc2ccc(C(=O)NN=Cc3ccc[nH]3)cc2)cc1,14.0,1.1,46.5*,-1.3,-9.5,-159.0
O=C(N/N=C/c1ccncc1)c1cc2ccccc2cc1O,26.2,-0.7,1.6,2.9,-16.1,-8.4
O=C(N/N=C/c1ccncc1)c1sc2ccccc2c1Cl,10.7,x,-13.5,10.2,-12.8,-20.6
O=C(N/N=C/c1ccc[nH]1)c1ccccc1OCc1ccc(F)cc1,-2.6,0.0,-4.0,x,x,6.9
O=C(CSCC(=O)Nc1nc(-c2ccc3c(c2)OCO3)cs1)Nc1nccs1,44.5*,0.1,-1.2,0.1,-12.4,5.4
Cc1cccc2c1OCC/C2=N\NC(=O)COc1ccccc1Cl,70.2*,x,-0.4,-1.8,6.7,20.2
O=C(Nc1ccccc1Cl)N1C[C@@H]2[C@H](c3ccccc31)[C@H](CO)N2C(=O)c1cccnc1,-1.3,0.4,3.0,2.8,-14.0,-0.9
CCN1[C@@H]2Cn3c(cccc3=O)[C@H]1[C@@H](C(=O)NC1Cc3ccccc3C1)[C@@H]2CO,-2.1,0.0,x,x,x,-9.9
O=C(Nc1ccc(F)c(Cl)c1)c1ccc2sc([C@H]3C[C@H](O)[C@@H](CO)O3)nc2c1,62.2*,1.0,-9.1,3.3,-16.9,-26.7
CC(=O)Nc1ccc(NC(=O)c2ccc3sc([C@H]4C[C@H](O)[C@@H](CO)O4)nc3c2)cc1,-2.0,11.2,3.7,-0.7,-39.3,2.0
CC(=O)Nc1ccc(NC(=O)c2csc([C@@H]3C[C@H](O)[C@@H](CO)O3)n2)cc1,2.7,0.6,2.1,0.7,-36.2,1.9
O=C(Nc1cccc(Cl)c1)c1csc([C@@H]2C[C@H](O)[C@@H](CO)O2)n1,20.1,0.0,-0.5,2.6,-0.2,-8.0
